# Data published in PubChem BioAssay AID2112 (National Center for Advancing Translational Sciences (NCATS), 2009).
# Only a part is listed here, and it is no random draw. Some of these compounds have results that are not shown, active ones among them. The source made the active and inactive calls. The call rests on the fitted dose curve; in most records, active means well fitted inhibition curve with a large enough effect; inconclusive means small, poorly fitted or top-dose-only effect, or effect the other way, or another doubt; inactive means no such curve, though single readings can be large or run the other way.
# Biological target: Lysosomal alpha-glucosidase (Homo sapiens) (UniProt P10253)
# Test: qHTS Assay for Inhibitors and Activators of Human alpha-Glucosidase From Spleen Homogenate;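 further: 0% = enzyme with vehicle and -100% = no enzyme basal signal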
# Conditions: 4-MU-alpha-glucoside fluorescence; at 79.9 µM (top of the series)
# Text: NIH Chemical Genomics Center [NCGC] NIH Molecular Libraries Probe Production Centers Network [MLPCN] MLPCN Grant: R03 MH084841-01 Assay Submitter (PI): Wei Zheng NCGC Assay Overview: Alpha-glucosidase is responsible for the hydrolysis of terminal, non-reducing 1,4-linked alpha-D-glucose residues, which releases alpha-D-glucose. It is a lysosomal hydrolase that is required for the degradation of a small percentage (1-3%) of cellular glycogen in humans. Deficiency of this enzyme results in glycogen-storage disease type II (GSDII), also referred to as Pompe disease, an autosomal recessive disorder. Structurally normal glycogen is accumulated in the lysosomes and cytoplasm in affected patients, primarily in muscle tissues. Excessive glycogen storage within lysosomes may interrupt normal functioning of other organelles and leads to cellular injury. In turn, this leads to enlargement and dysfunction of the entire organ involved (eg: cardiomyopathy and muscle weakness). It has been reported that the improper folding and trafficking of alpha-glucosidase resulting from genetic mutations may account for a significant number of Pompe patients. […] We optimized this alpha-glucosidase assay in 1536-well plate format for identification of novel small molecule inhibitors or activators with structures other than the sugar analogs in order to develop new pharmacological chaperones. In particular, this assay is directed towards discovering compounds active in a more natural setting, tissue homogenate, that may have been missed by screens of the purified enzyme under more stringent conditions.
# NCGC Assay Protocol Summary: This is a fluorogenic enzyme assay with 4-methylumbelliferyl-alpha-D-glucopyranoside as the substrate and human spleen homogenate containing alpha-glucosidase as the enzyme preparation. Upon hydrolysis of this fluorogenic substrate, the resulting product, 4-methylumbelliferone (which excites at 365 nm and emits at 440 nm) can be detected by a fluorescence plate reader. Data were normalized to the controls for basal activity (without enzyme) and 100% activity (with enzyme). The AC50 values were determined from concentration-response data modeled with the standard Hill equation. Assay buffer: 50 mM citric acid (titrated with potassium phosphate to pH 5.0), 0.01% Tween-20 (pH 5.0 is an optimal condition for this enzyme assay) 1536-well assay protocol for the alpha-glucosidase from human spleen homogenate: (1) Add 2 ul/well spleen homogenate (1 ug) (2) Add 23 nL compounds in DMSO solution. The final titration was 0.5 nM to 58 uM. (3) Add 2 ul of substrate (1 mM final) (4) Incubate at 37 C for 40 min (5) Add 2 ul stop solution (1M NaOH and 1M Glycine mixture, pH 10) (6) Detect the assay plate in a ViewLux plate reader (PerkinElmer) with Ex=365 nm and Em=440nm. Keywords: Alpha-glucosidase, Pompe Disease, pharmacological chaperone, chaperone therapy, high throughput screening, alpha-glucosidase inhibitor, MLSMR, MLSCN, NIH Roadmap, qHTS and NCGC
row,SMILES,"activity change, negative = inhibition"
1,COc1cccc(C(=O)NCC2(N3CCCCC3)CCCCC2)c1,inactive: -6.22%
2,CN(C)c1cccc(C(=O)NCC2(N(C)C)CCCCC2)c1,inactive: 4.3%
3,COc1ccc(Br)c(C(=O)NCC2(N3CCCCC3)CCCCC2)c1,inactive: -9.91%
4,O=C(OC1CN2CCC1CC2)C(CO)(c1ccccc1)c1ccccc1 (stereo unspecified),inactive: -0.104%
5,CC(C)N1C(=O)CC2(CCN(CCOC(=O)C(O)(c3ccccc3)c3ccccc3)CC2)C1=O,inactive: -25.5%
6,CCN(CC)CC(C)C(C)OC(=O)C(O)(c1ccccc1)c1ccccc1 (stereo unspecified),inactive: -3.03%
7,O=C(NCC1(N2CCCCC2)CCCCC1)c1cc([N+](=O)[O-])ccc1Cl,inactive: 7.87%
8,CCN1CCCC(OC(=O)C2(O)c3ccccc3C=Cc3ccccc32)C1 (stereo unspecified),inactive: -2.41%
9,C=CCN1CCN(CCOC(=O)C(O)(c2ccccc2)c2ccccc2)CC1,inactive: 7.23%
10,Cc1ccccc1C(=O)NCC1(N2CCCCC2)CCCCC1,inactive: -5.46%
11,CN(C)C1CCCC1OC(=O)C(O)(c1ccccc1)c1ccccc1 (stereo unspecified),inactive: 2.41%
